Experimental data: ChEMBL document CHEMBL2163206, “New nitrogen containing substituents at the indole-2-carboxamide yield high potent and broad spectrum indolylarylsulfone HIV-1 non-nucleoside reverse transcriptase inhibitors” (J Med Chem, 2012)

How the values were obtained:
[1] = target: Human immunodeficiency virus type 1 reverse transcriptase (Human immunodeficiency virus 1) (UniProt Q72547); test: Potency index, ratio of IC50 for Efavirenz to IC50 for compound against wild type HIV1 reverse transcriptase
[2] = target: Human immunodeficiency virus type 1 reverse transcriptase (Human immunodeficiency virus 1) (UniProt Q72547); test: Potency index, ratio of IC50 for nevirapine to IC50 for compound against wild type HIV1 reverse transcriptase

SMILES: Cc1cc(C)cc(S(=O)(=O)c2c(C(=O)NCc3ccncc3)[nH]c3ccc(Cl)cc23)c1
- Ratio IC50 [1]: 2

SMILES: Cc1cc(C)cc(S(=O)(=O)c2c(C(=O)NCc3cccnc3)[nH]c3ccc(Cl)cc23)c1
- Ratio IC50 [2]: 20
